ChEMBL document CHEMBL3861996, “Arylsulfonamide derivatives of (aryloxy)ethyl pyrrolidines and piperidines as α1-adrenergic receptor antagonist with uro-selective activity” (Bioorg Med Chem, 2016)

Organism: Rattus norvegicus
Experiment: Selectivity ratio of Ki for alpha2 adrenergic receptor in rat brain cerebral cortex membranes to Ki for alpha1 adrenergic receptor in rat brain cerebral cortex membranes
Type: cell membranes
Procedure, shortened: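 Rat cerebral cortex homogenized in ice-cold 50 mM Tris–HCl (pH 7.6), spun at 20,000 g for 20 min (0–4 °C), resuspended and spun again. Membranes incubated with 0.2 nM [3H]-prazosin (α1) or 2 nM [3H]-clonidine (α2) and seven to eight compound concentrations (10^-11 to 10^-4 M). Non-specific binding defined with 10 µM phentolamine (prazosin) or 10 µM clonidine (clonidine). Ended by GF/C filtration, counted by liquid scintillation. Run in duplicate; Ki from two independent experiments.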

| Ratio Ki | Compound |
| --- | --- |
| 14 | COc1ccccc1OCCN1CCC(CNS(=O)(=O)c2cccc(Cl)c2F)CC1 |
| 22 | COc1ccc(S(=O)(=O)NC2CCN(CCOc3ccccc3OC)CC2)cc1OC |
| 10 | COc1ccccc1OCCN1CCC(CNS(=O)(=O)c2cccc(Cl)c2)CC1 |
| 24 | COc1ccccc1OCCN1CCC(CNS(=O)(=O)c2cc(Cl)ccc2F)CC1 |
| 8 | COc1ccc(S(=O)(=O)NCC2CCN(CCOc3ccccc3OC)CC2)cc1OC |

The next lines start with the compound.

| Compound | Ratio Ki |
| --- | --- |
| CC(C)Oc1ccccc1OCCN1CCC(CNS(=O)(=O)c2cccc(Cl)c2F)CC1 | 17 |
| COc1ccccc1OCCN1CCC(CNS(=O)(=O)c2cncc3ccccc23)CC1 | 8 |
| COc1ccccc1OCCN1CCC(NS(=O)(=O)c2cncc3ccccc23)CC1 | 6 |
| CC(C)Oc1ccccc1OCCN1CCC(CNS(=O)(=O)c2cccc3cccnc23)CC1 | 10 |
